Patent publication US6462016 (SHISEIDO, dated 2002)

Experiments:
[1] = molecular target: T1, maxadilan (recombinant represented by SEQ ID NO: 2, peptide fragment GSIL- bound to the N-terminal cysteine … (Lutzomyia longipalpis (sand fly), UniProt P30659 24-86)); test: ^125I-Max saturation binding and Scatchard plot, rabbit brain crude membrane fraction, filtration
[2] = molecular target: T1, maxadilan (recombinant represented by …); test: ^125I-Max saturation binding and Scatchard plot, rat brain crude membrane fraction
[3] = molecular target: T1, maxadilan (recombinant represented by …); test: ^125I-Max saturation binding and Scatchard plot, mouse brain crude membrane fraction
[4] = molecular target: T1, maxadilan (recombinant represented by …); test: ^125I-Max saturation binding and Scatchard plot, cattle brain crude membrane fraction

B1: maxadilan receptor of the rabbit (maxadilan-specific receptor in crude membrane fractions from rabbit brain and rabbit spleen) (receptor)
chain: MAGVLQVSLAALLLLPAATAMHSDCIFKKEQALCLEKIQRANDLLGLNDSSPGCPGMWDNITCWKPAHVGEMVLVSCPELFRIFNPDQGEFDFAESTSLDLADMGVVSRNCTEDGWSEPFPHYFDACGFDEYESEPGDQDYYYLSVKALYTVGYSTSLVTLTTAMVILCRFRKLHCTRNFIHMNLFVSFMLRAISVFIKDWILYAEQDSNHCFVSTVECKAVMVFFHYCVVSNYFWLFIEGLYLFTLLVETFFPERRYFYWYTMIGWGTPTVCVAVWATLRLYFDDTGCWDMNDSTALWWVIKGPVVASIMVNFVLFIGIIIILVQKLQSPDTGGNESSIYLRLARSTLLLIPLFGIHYTVFAFSPENVSKRERLVFELGLGSFQGFVVAVLYCFLNGEVQAEIKRKWRSWKVNRYFAVDFKHRHPSLASSGVNGGTQLSILSKSSSQLRMSGLPADNLAT
B1 showed a Kd [1] of 0.066 nM.

B2: maxadilan receptor of the rat (in the crude membrane fraction from rat brain and on PC-12 cells) (receptor)
chain: MARVLQLSLTALLLPVAIAMHSDCIFKKEQAMCLERIQRANDLMGLNESSPGCPGMWDNITCWKPAQVGEMVLVSCPEVFRIFNPDQVWMTETIGDSGFADSNSLEITDMGVVGRNCTEDGWSEPFPHYFDACGFDDYEPESGDQDYYYLSVKALYTVGYSTSLATLTTAMVILCRFRKLHCTRNFIHMNLFVSFMLRAISVFIKDWILYAEQDSSHCFVSTVECKAVMVFFHYCVVSNYFWLFIEGLYLFTLLVETFFPERRYFYWYTIIGWGTPTVCVTVWAVLRLYFDDAGCWDMNDSTALWWVIKGPVVGSIMVNFVLFIGIIIILVQKLQSPDMGGNESSIYLTNLRLRVPKKTREDPLPVPSDQHSPPFLSCVQKCYCKPQRAQQHSCKMSELSTITLRLARSTLLLIPLFGIHYTVFAFSPENVSKRERLVFELGLGSFQGFVVAVLYCFLNGEVQAEIKRKWRSWKVNRYFTMDFKHRHPSLASSGVNGGTQLSILSKSSSQLRMSSLPADNLAT
Binder B2 has a Kd [2] of 0.161 nM.

B3: maxadilan receptor of the mouse (in the crude membrane fraction from mouse brain) (receptor)
chain: MARTLQLSLTALLLLPMAIAMHSDCIFKKEQAMCLERIQRANDLMGLNESSPGCPGMWDNITCWKPAQIGEMVLVSCPEVFRIFNPDQVWMTETIGDSGFADSNSLEITDMGVVGRNCTEDGWSEPFPHYFDACGFDDYEPESGDQDYYYLSVKALYTVGYSTSLVTLTTAMVILCRFRKLHCTRNFIHMNLFVSFMLRAISVFIKDWILYAEQDSSHCFVSTVECKAVMVFFHYCVVSNYFWLFIEGLYLFTLLVETFFPERRYFYWYTIIGWGTPTVCVTVWAVLRLYFDDAGCWDMNDSTALWWVIKGPVVGSIMVNFVLFIGIIIILVQKLQSPDMGGNESSIYFSCVQKCYCKPQRAQQHSCKMSELSTITLRLARSTLLLIPLFGIHYTVFAFSPENVSKRERLVFELGLGSFQGFVVAVLYCFLNGEVQAEIKRKWRSWKVNRYFTMDFKHRHPSLASSGVNGGTQLSILSKSSSQLRMSSLPADNLAT
B3 showed a Kd [3] of 0.068 nM.

B4: maxadilan receptor of cattle (in the crude membrane fraction from bovine brain) (receptor)
chain: MRGGRHWPEPPCRLRSVMASIAQVSLAALLLLPMATAMHSDCIFKKEQAMCLEKIQRVNDLMGLNDSSPGCPGMWDNITCWKPAHVGEMVLVSCPELFRIFNPDQVWETETIGEFGFADSKSLDLSDMRVVSRNCTEDGWSEPFPHYFDACGFEEYESETGDQDYYYLSVKALYTVGYSTSLVTLTTAMVILCRFRKLHCTRNFIHMNLFVSFMLRAISVFIKDWILYAEQDSNHCFVSTVECKAVMVFFHYCVVSNYFWLFIEGLYLFTLLVETFFPERRYFYWYIIIGWGTPTVCVSVWAMLRLYFDDTGCWDMNDNTALWWVIKGPVVGSIMVNFVLFIGIIVILVQKLQSPDMGGNESSIYFSCVQKCYCKPQRAQQHSCKMSELSTITLRLARSTLLLIPLFGIHYTVFAFSPENVSKRERLVFELGLGSFQGFVVAVLYCFLNGEVQAEIKRKWRSWKVNRYFTMDFKHRHPSLASSGVNGGTQLSILSKSSSQIRMSGLPADNLAT
B4 showed a Kd [4] of 0.066 nM.
